Values quoted from earlier work as cited in US20090088403A1, “A3 ADENOSINE RECEPTORS AS TARGETS FOR THE MODULATION OF CENTRAL SEROTONERGIC SIGNALING” (priority 2007, published 2009).

Sequences of proteins named here, by UniProt entry; tags and fusion partners are left off. A change or cut given only in a name is not applied to a line headed by its entry.
UniProt P25099, whole entry: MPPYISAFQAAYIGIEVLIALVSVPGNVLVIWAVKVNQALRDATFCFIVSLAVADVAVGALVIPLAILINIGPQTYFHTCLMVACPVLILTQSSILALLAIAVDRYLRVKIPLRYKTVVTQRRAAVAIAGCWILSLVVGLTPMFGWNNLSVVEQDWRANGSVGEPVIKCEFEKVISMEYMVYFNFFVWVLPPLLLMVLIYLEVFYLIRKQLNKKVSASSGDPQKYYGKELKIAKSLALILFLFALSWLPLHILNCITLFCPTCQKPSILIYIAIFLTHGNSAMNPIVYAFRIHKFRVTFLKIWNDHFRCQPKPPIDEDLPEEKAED
UniProt P30543, whole entry: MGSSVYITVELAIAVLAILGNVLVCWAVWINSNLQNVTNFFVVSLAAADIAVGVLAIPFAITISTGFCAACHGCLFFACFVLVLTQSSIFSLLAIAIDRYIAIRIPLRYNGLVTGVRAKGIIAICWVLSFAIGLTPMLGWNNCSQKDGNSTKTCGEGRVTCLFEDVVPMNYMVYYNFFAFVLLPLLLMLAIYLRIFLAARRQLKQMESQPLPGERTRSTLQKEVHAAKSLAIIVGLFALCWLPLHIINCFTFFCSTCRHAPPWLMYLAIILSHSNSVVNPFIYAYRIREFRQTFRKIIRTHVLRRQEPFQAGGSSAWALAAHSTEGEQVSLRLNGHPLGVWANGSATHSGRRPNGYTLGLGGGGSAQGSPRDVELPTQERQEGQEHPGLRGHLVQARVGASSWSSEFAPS

How the values were obtained:
A1 AR = A1 AR (Rattus norvegicus, UniProt P25099); conditions: read-out: KD A1 AR; rat and mouse; cited from earlier work
A2A AR = A2A AR (Rattus norvegicus, UniProt P30543); conditions: rat and mouse; cited from earlier work

## N6-(3-iodobenzyl)-N-methyl-5′carbamoyladenosine [IB-MECA]
A1 AR
  Kd: ~50 nM
A2A AR
  Kd: ~50 nM
